Experimental findings from BindingDB's records for 19679481 are described below.

Chains of the proteins cited; added tags and fusions are not shown.
UniProt P29475, whole entry, looked up: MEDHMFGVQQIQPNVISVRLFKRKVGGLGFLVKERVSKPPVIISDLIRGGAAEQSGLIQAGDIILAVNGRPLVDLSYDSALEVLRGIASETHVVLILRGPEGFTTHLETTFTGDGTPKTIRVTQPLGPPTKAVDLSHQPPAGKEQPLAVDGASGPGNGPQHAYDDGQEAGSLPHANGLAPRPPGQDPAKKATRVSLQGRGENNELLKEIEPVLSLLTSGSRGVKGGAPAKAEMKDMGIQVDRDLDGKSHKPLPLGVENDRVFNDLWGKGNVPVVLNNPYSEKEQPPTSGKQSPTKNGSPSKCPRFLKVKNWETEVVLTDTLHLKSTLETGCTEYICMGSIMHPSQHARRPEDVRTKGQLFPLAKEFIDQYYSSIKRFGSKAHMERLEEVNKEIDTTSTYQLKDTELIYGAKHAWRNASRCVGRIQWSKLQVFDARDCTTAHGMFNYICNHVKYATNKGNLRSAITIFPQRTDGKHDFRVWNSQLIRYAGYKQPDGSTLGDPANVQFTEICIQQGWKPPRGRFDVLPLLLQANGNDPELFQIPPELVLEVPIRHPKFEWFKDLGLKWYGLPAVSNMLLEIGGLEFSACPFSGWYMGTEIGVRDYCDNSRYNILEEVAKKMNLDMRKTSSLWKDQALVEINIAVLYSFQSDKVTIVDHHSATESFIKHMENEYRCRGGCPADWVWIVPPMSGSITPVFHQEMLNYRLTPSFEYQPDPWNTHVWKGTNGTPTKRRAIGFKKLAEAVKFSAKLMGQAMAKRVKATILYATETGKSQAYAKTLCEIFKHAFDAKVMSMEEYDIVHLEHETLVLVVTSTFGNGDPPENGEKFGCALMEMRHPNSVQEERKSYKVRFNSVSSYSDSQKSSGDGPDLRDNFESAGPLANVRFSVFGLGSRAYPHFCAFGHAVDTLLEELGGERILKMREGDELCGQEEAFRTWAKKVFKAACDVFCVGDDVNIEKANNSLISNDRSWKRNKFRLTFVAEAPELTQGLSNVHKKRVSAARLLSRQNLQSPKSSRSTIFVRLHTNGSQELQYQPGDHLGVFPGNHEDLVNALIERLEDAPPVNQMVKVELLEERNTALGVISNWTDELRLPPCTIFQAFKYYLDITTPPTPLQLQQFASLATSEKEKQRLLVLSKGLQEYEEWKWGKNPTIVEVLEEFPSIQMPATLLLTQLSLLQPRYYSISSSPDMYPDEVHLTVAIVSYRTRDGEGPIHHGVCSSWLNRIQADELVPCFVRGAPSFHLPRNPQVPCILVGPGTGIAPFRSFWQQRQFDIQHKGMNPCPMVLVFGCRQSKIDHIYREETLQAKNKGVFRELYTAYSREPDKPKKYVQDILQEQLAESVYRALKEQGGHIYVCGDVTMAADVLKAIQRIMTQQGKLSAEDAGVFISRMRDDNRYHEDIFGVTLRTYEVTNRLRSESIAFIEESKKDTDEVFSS

This assay addresses Nitric oxide synthase, brain (Homo sapiens, UniProt P29475). Nature of the assay: Inhibition of recombinant NOS1 assessed as citrulline formation.

For the molecule `O=[N+]([O-])c1ccc2c(c1)c(Br)nn2[N+](=O)[O-]`, the IC50 was 275 µM.

By IC50 is commonly meant the concentration needed to halve the response being measured.
